For 26 compounds, IC50 results are on record in patent publication US9242969B2, “Biaryl amide compounds as kinase inhibitors” (Novartis AG, priority 2013, dated 2016).

Amino acid sequences for entries named in this document (tags omitted).
UniProt P04049, whole entry Y340E/Y341E: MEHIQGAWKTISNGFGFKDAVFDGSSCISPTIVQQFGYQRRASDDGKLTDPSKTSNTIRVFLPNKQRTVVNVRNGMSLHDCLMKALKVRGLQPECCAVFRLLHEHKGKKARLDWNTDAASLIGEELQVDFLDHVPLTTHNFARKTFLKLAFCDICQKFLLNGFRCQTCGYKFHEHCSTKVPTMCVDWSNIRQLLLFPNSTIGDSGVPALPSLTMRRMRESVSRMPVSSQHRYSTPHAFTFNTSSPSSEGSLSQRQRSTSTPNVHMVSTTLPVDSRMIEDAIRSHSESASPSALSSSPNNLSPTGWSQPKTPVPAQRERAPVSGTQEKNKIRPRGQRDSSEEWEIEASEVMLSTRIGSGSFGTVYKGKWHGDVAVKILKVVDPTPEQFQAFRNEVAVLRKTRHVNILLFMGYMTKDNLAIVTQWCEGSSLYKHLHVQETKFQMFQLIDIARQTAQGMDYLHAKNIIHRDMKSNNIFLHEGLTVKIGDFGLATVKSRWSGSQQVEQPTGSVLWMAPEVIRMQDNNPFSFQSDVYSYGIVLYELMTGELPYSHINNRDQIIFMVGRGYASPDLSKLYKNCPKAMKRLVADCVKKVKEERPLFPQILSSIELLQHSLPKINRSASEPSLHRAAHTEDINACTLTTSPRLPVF

The structures appear in SMILES notation.

In this test the target is C-Raf FL (full-length C-Raf with Y340E and Y341E activating mutations) (Homo sapiens (Human), UniProt P04049, Y340E/Y341E). The class given is biochemical. To be noted: full-length c-Raf 4 pM, ATP 3 uM, 10 nM biotinylated MEK1 kinase dead.
On to `Cc1ccc(NC(=O)c2cccc(C(F)(F)F)c2)cc1-c1cc(N2C3CCC2COC3)nc(N2CCOCC2)n1` [Example 49, N-(3-(6-(3-oxa-8-azabicyclo[3.2.1]octan-8-yl)-2-morpholinopyrimidin-4-yl)-4-methylphenyl)-3-(trifluoromethyl)benzamide], for which the midpoint of inhibition, the IC50, lay at 0.376 nM. The result for `Cc1ccc(NC(=O)c2cccc(C(F)(F)F)c2)cc1-c1cc(N2CCCOCC2)nc(N2CCOCC2)n1` [Example 50, N-(4-methyl-3-(2-morpholino-6-(1,4-oxazepan-4-yl)pyrimidin-4-yl)phenyl)-3-(trifluoromethyl)benzamide] reads 0.25 nM; that for `Cc1ccc(NC(=O)c2cccc(C(F)(F)F)c2)cc1-c1cc(N2CC3CC2CO3)nc(N2CCOCC2)n1` (centres unmarked) [Example 51, N-(3-(6-(2-oxa-5-azabicyclo[2.2.1]heptan-5-yl)-2-morpholinopyrimidin-4-yl)-4-methylphenyl)-3-(trifluoromethyl)benzamide], 0.661 nM.

`Cc1ccc(NC(=O)c2cccc(C(F)(F)F)c2)cc1-c1cc(N2CCO[C@H](C)C2)nc(N2CCOCC2)n1` [Example 53, (R)—N-(4-methyl-3-(6-(2-methylmorpholino)-2-morpholinopyrimidin-4-yl)phenyl)-3-(trifluoromethyl)benzamide]: the IC50 (in general, the concentration at which inhibition is half-maximal) was 0.651 nM. The result for `Cc1ccc(NC(=O)c2cccc(C(F)(F)F)c2)cc1-c1cc(N2CCO[C@@H](C)C2)nc(N2CCOCC2)n1` [Example 54, (S)—N-(4-methyl-3-(6-(2-methylmorpholino)-2-morpholinopyrimidin-4-yl)phenyl)-3-(trifluoromethyl)benzamide] reads 0.625 nM; that for `Cc1ccc(NC(=O)c2cccc(C(F)(F)F)c2)cc1-c1cc(OC2CCOCC2)nc(N2CCOCC2)n1` [Example 56, N-(4-methyl-3-(2-morpholino-6-((tetrahydro-2H-pyran-4-yl)oxy)pyrimidin-4-yl)phenyl)-3-(trifluoromethyl)benzamide], 0.191 nM; that for `Cc1ccc(NC(=O)c2cccc(C(F)(F)F)c2)cc1-c1nc(N2CCOCC2)nc(N2CCOCC2)c1C` [Example 57, N-(4-methyl-3-(5-methyl-2,6-dimorpholinopyrimidin-4-yl)phenyl)-3-(trifluoromethyl)benzamide], 0.179 nM. The result for `Cc1ncc(NC(=O)c2cccc(C(F)(F)F)c2)cc1-c1cnnc(N2CCOCC2)c1` [Example 58, N-(6-methyl-5-(6-morpholinopyridazin-4-yl)pyridin-3-yl)-3-(trifluoromethyl)benzamide] reads 1.03 nM; that for `Cc1ccc(NC(=O)c2cccc(C(F)(F)F)c2)cc1-c1cc(N2CCOCC2)cnn1` [Example 59, N-(4-methyl-3-(5-morpholinopyridazin-3-yl)phenyl)-3-(trifluoromethyl)benzamide], 0.432 nM. With `Cc1ccc(NC(=O)c2cccc(C(F)(F)F)c2)cc1-c1cc(C(F)(F)F)nc(N2CCOCC2)n1` [Example 61], it took 0.314 nM to reach half-maximal inhibition (IC50). The result for `Cc1ccc(NC(=O)c2cccc(C(F)(F)F)c2)cc1-c1ccnc(N2CCOCC2)c1` [Example 62, N-(4-methyl-3-(2-morpholinopyridin-4-yl)phenyl)-3-(trifluoromethyl)benzamide] reads 0.161 nM; that for `Cc1ccc(C(=O)Nc2cccc(C(F)(F)F)c2)cc1-c1ccnc(N2CCOCC2)c1` [Example 63, 4-Methyl-3-(2-morpholinopyridin-4-yl)-N-(3-(trifluoromethyl)phenyl)benzamide], 0.436 nM; that for `Cc1ccc(NC(=O)c2cccc(C(F)(F)F)c2)cc1-c1cc(N2CCOCC2)nc(N2CCOCC2)c1` [Example 65, N-(3-(2,6-dimorpholinopyridin-4-yl)-4-methylphenyl)-3-(trifluoromethyl)benzamide], 0.187 nM.

`Cc1ccc(NC(=O)c2cccnn2)cc1-c1ccnc(N2CCOCC2)c1` [Example 67, N-(4-methyl-3-(2-morpholinopyridin-4-yl)phenyl)pyridazine-3-carboxamide] displayed an IC50 of 77.9 nM. This IC50 is about 420-fold higher than that of the compound before. Next, `Cc1ccc(NC(=O)c2cccc(S(C)(=O)=O)c2)cc1-c1ccnc(N2CCOCC2)c1` [Example 68, N-(4-methyl-3-(2-morpholinopyridin-4-yl)phenyl)-3-(methylsulfonyl)benzamide]: 0.124 nM. The result for `Cc1ccc(NC(=O)c2ccnc(C(C)(C)C)c2)cc1-c1ccnc(N2CCOCC2)c1` [Example 69, 2-(tert-butyl)-N-(4-methyl-3-(2-morpholinopyridin-4-yl)phenyl)isonicotinamide] reads 0.396 nM.

Regarding `Cc1ccc(NC(=O)c2cnccn2)cc1-c1ccnc(N2CCOCC2)c1` [Example 70, N-(4-methyl-3-(2-morpholinopyridin-4-yl)phenyl)pyrazine-2-carboxamide], the IC50 is 24 nM. For `Cc1ccc(NC(=O)c2cncnc2)cc1-c1ccnc(N2CCOCC2)c1` [Example 71, N-(4-methyl-3-(2-morpholinopyridin-4-yl)phenyl)pyrimidine-5-carboxamide], the half-inhibitory concentration (IC50) was 83.3 nM.

`Cc1ccc(NC(=O)c2ccnnc2)cc1-c1ccnc(N2CCOCC2)c1` [Example 72, N-(4-methyl-3-(2-morpholinopyridin-4-yl)phenyl)pyridazine-4-carboxamide] gave an IC50 of 78 nM. The result for `Cc1ccc(NC(=O)c2ccnc(S(C)(=O)=O)c2)cc1-c1ccnc(N2CCOCC2)c1` [Example 73, N-(4-methyl-3-(2-morpholinopyridin-4-yl)phenyl)-2-(methylsulfonyl)isonicotinamide] reads 0.25 nM; that for `Cc1ccc(NC(=O)c2cccc(C(F)F)c2)cc1-c1ccnc(N2CCOCC2)c1` [Example 75, 3-(difluoromethyl)-N-(4-methyl-3-(2-morpholinopyridin-4-yl)phenyl)benzamide], 0.056 nM; that for `Cc1ccc(NC(=O)c2cccc(C(F)(F)F)c2)cc1-c1cc(N(C)C)nc(N2CCOCC2)c1` [Example 76, N-(3-(2-(dimethylamino)-6-morpholinopyridin-4-yl)-4-methylphenyl)-3-(trifluoromethyl)benzamide], 0.765 nM. Compound `Cc1ccc(NC(=O)c2cccc(C(F)(F)F)c2)cc1-c1ccnc(N2CCO[C@H](CO)C2)c1` [Example 78, (S)—N-(3-(2-(2-(hydroxymethyl)morpholino)pyridin-4-yl)-4-methylphenyl)-3-(trifluoromethyl)benzamide] registered an IC50 of 0.199 nM. For `Cc1ccc(NC(=O)c2ccnc(C(C)(C)C#N)c2)cc1-c1ccnc(N2C[C@@H](CN(C)C)OC[C@H]2C)c1` [Example 79, 2-(2-cyanopropan-2-yl)-N-(3-(2-((2R,5R)-2-((dimethylamino)methyl)-5-methylmorpholino)pyridin-4-yl)-4-methylphenyl)isonicotinamide], the IC50 was 28 nM.

The compound `Cc1ccc(NC(=O)c2ccnc(C(C)(C)C#N)c2)cc1-c1ccnc(N2C[C@H](CN(C)C)OC[C@@H]2C)c1` [Example 80, 2-(2-cyanopropan-2-yl)-N-(3-(2-((2S,5S)-2-((dimethylamino)methyl)-5-methylmorpholino)pyridin-4-yl)-4-methylphenyl)isonicotinamide] gave a concentration for half-maximal inhibition (IC50) of 10.1 nM.

`Cc1ncc(NC(=O)c2cncc(N(C)C)c2)cc1-c1ccnc(N2CCOCC2)c1` [Example 81, 5-(dimethylamino)-N-(2-methyl-2′-morpholino-[3,4′-bipyridin]-5-yl)nicotinamide] came in with an IC50 of 1.45 nM. This IC50 is about 7-fold lower than that of the compound before.
